The experiment concerns 3-deoxy-D-arabinoheptulonic acid-7-phosphate synthetase (DS) of Brevibacterium lactofermentum AJ 11957. The experiment in a line: DS activity of crude enzyme solution with amino acids added, strain AJ 11957. To be noted: 1 mM each; crude enzyme of AJ 11957; activity with none added = 100%.

`N[C@@H](Cc1ccc(O)cc1)C(=O)O` [Tyrosine, tyrosine]: the “Residual Activity When Each Amino Acid Was Added” value came out at 108%.

(Values after patent US4968609A, “Coryneform bacteria carrying recombinant DNA and a process for producing aromatic amino acids using said bacteria” (priority 1984, dated 1990).)
